Source: publication PMC3822589 (Journal of Cellular and Molecular Medicine, 2013)

Assays:
[1] = tested on: Jak3A572V phosphorylation (P-Jak3) in CMK cells; assay: Western blot of phospho-Jak3 in CMK cells; type: cell-based; settings: 0.5, 1 or 5 μM, 3 hrs
[2] = tested on: Jak2V617F phosphorylation (P-Jak2) in HEL cells; assay: Western blot of phospho-Jak2 in HEL cells; type: cell-based, human; settings: 0.5, 1 or 5 μM, 3 hrs

In the case of `C[C@@H]1CCN(C(=O)CC#N)C[C@@H]1N(C)c1ncnc2[nH]ccc12` [CP690,550, Tofacitinib], the “effect on phosphorylation of Jak3A572V” value [1] is reported as “hyper-phosphorylation of Jak3A572V” and the “effect on phosphorylation of Jak2” value [2] is reported as “Hyper-phosphorylation of Jak2V617F”.
